Data published in EP0637237B1, “CALCIUM RECEPTOR-ACTIVE MOLECULES” (BRIGHAM AND WOMEN'S HOSPITAL, INC., priority 1993, dated 1994).

Tested on: Bovine parathyroid cells
Conditions: at concentrations that caused mobilization of intracellular Ca2+, Figs. 8, 13 (neomycin B data of Fig. 13 from human cells)

In the case of `NCCCNCCCCNCCCN` [spermine], the “inhibition of PTH secretion” value is reported as “inhibited PTH secretion to the same extent as extracellular Ca^2+”.
